Laboratory results from patent publication US8716192B2, “Micro RNAs for identification of exposure to lower aliphatic saturated aldehydes and the method of identification using thereof” (Korea Institute of Science and Technology, priority 2012, dated 2014).

Tests used:
[1] = test system: hsa-miR-590-5p (MIMAT0003258); experiment: Micro RNA microarray, change of hsa-miR-590-5p expression; assay type: cell-based, human
[2] = test system: hsa-miR-28-5p (MIMAT0000085); experiment: Micro RNA microarray, change of hsa-miR-28-5p expression; assay type: cell-based, human; settings: A549, treated at IC20 for 48 hours, versus control

CCC=O [propionaldehyde]
Change (Fold) hsa-miR-590-5p ([1]; A549, treated at IC20 for 48 hours, microarray, versus control): 1.229 Fold
expression level of hsa-miR-590-5p compared to the normal control group ([1]; result in words): up-regulated
Change (Fold) hsa-miR-28-5p [2]: 1.743 Fold
